Measurements reported in ChEMBL document CHEMBL4627254, “Design and synthesis of (E)-1,2-diphenylethene-based EZH2 inhibitors” (Bioorg Med Chem Lett, 2020).

Chains of the proteins cited; added tags and fusions are not shown.
UniProt Q15910, whole entry: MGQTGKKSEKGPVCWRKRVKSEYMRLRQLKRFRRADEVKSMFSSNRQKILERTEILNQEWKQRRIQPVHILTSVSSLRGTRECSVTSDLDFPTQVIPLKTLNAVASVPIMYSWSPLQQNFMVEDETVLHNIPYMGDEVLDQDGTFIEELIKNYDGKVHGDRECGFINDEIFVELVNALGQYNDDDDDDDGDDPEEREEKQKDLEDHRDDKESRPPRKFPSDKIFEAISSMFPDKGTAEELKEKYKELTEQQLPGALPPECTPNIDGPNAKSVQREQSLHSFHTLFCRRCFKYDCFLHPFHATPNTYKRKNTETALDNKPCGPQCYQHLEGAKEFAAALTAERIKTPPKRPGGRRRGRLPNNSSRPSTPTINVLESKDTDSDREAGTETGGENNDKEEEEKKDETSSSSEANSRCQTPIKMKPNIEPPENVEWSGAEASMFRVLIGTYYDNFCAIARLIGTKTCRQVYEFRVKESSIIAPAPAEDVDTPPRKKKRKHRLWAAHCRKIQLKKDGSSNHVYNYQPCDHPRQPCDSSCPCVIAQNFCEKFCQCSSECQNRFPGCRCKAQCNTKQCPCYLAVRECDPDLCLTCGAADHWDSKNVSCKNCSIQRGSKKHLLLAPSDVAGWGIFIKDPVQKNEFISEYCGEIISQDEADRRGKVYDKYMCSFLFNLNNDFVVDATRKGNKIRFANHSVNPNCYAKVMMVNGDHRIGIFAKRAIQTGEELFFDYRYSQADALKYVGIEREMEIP

Molecular target: T1, Histone-lysine N-methyltransferase EZH2 (Homo sapiens, UniProt Q15910)
Assay: Inhibition of wild type EZH2 (unknown origin) by AlphaLISA assay

IC50 | SMILES
> 200 nM | CCN(c1cc(/C=C/c2ccc(CN3C[C@@H](C)O[C@@H](C)C3)cc2)cc(C(=O)NCc2c(C)c3c([nH]c2=O)CCCC3)c1C)C1CCOCC1
143 nM | CCN(c1cc(/C=C/c2ccc(CN3CCN(C)CC3)cc2)cc(C(=O)NCc2c(C)c3c([nH]c2=O)CCCC3)c1C)C1CCOCC1
31 nM | CCN(c1cc(/C=C/c2ccc(CN3CCN(C)CC3)cc2)cc(C(=O)NCc2c3c(c(C)[nH]c2=O)CCCC3)c1C)C1CCOCC1
39 nM | CCN(c1cc(/C=C/c2cccc(CN3CCOCC3)c2)cc(C(=O)NCc2c3c(c(C)[nH]c2=O)CCCC3)c1C)C1CCOCC1
> 200 nM | CCN(c1cc(/C=C/c2ccc(CN3CCOCC3)cc2)cc(C(=O)NCc2c(C)c3c([nH]c2=O)CCCC3)c1C)C1CCOCC1
137 nM | CCN(c1cc(/C=C/c2ccc(S(=O)(=O)N3CCOCC3)cc2)cc(C(=O)NCc2c3c(c(C)[nH]c2=O)CCCC3)c1C)C1CCOCC1
23 nM | CCN(c1cc(/C=C/c2ccc(N3CCOCC3)nc2)cc(C(=O)NCc2c3c(c(C)[nH]c2=O)CCCC3)c1C)C1CCOCC1
110 nM | CCN(c1cc(/C=C/c2ccc(CN3C[C@@H](C)O[C@@H](C)C3)cc2)cc(C(=O)NCc2c3c(c(C)[nH]c2=O)CCCC3)c1C)C1CCOCC1
161 nM | CCN(c1cc(/C=C/c2ccc(CN3C[C@@H]4C[C@H]3CO4)c(F)c2)cc(C(=O)NCc2c(C)c3c([nH]c2=O)CCCC3)c1C)C1CCOCC1
33 nM | CCN(c1cc(/C=C/c2ccc(CN3C[C@@H](C)O[C@@H](C)C3)c(F)c2)cc(C(=O)NCc2c(C)c3c([nH]c2=O)CCCC3)c1C)C1CCOCC1
27 nM | CCN(c1cc(/C=C/c2ccc(CN3CCOCC3)cc2)cc(C(=O)NCc2c3c(c(C)[nH]c2=O)CCCC3)c1C)C1CCOCC1
225 nM | CCN(c1cc(/C=C/c2ccc(S(=O)(=O)N3CCOCC3)cc2)cc(C(=O)NCc2c(C)c3c([nH]c2=O)CCCC3)c1C)C1CCOCC1
189 nM | CCN(c1cc(/C=C/c2ccc3c(c2)NC(=O)CO3)cc(C(=O)NCc2c(C)c3c([nH]c2=O)CCCC3)c1C)C1CCOCC1
329 nM | CCN(c1cc(/C=C/c2ccc(CN3C[C@H]4C[C@@H]3CO4)c(F)c2)cc(C(=O)NCc2c(C)c3c([nH]c2=O)CCCC3)c1C)C1CCOCC1
56 nM | CCN(c1cc(/C=C/c2ccc(CN3C[C@@H]4C[C@H]3CO4)c(F)c2)cc(C(=O)NCc2c3c(c(C)[nH]c2=O)CCCC3)c1C)C1CCOCC1
> 200 nM | CCN(c1cc(/C=C/c2cccc(CN3CCOCC3)c2)cc(C(=O)NCc2c(C)c3c([nH]c2=O)CCCC3)c1C)C1CCOCC1
620 nM | CCN(c1cc(/C=C/c2ccc(/C=C/C(=O)OC)cc2)cc(C(=O)NCc2c3c(c(C)[nH]c2=O)CCCC3)c1C)C1CCOCC1
114 nM | CCN(c1cc(/C=C/c2ccc(N3CCOCC3)nc2)cc(C(=O)NCc2c(C)c3c([nH]c2=O)CCCC3)c1C)C1CCOCC1
44 nM | CCN(c1cc(/C=C/c2ccc3c(c2)NC(=O)CO3)cc(C(=O)NCc2c3c(c(C)[nH]c2=O)CCCC3)c1C)C1CCOCC1
60 nM | CCN(c1cc(/C=C/c2ccc(CN3C[C@H]4C[C@@H]3CO4)c(F)c2)cc(C(=O)NCc2c3c(c(C)[nH]c2=O)CCCC3)c1C)C1CCOCC1
22 nM | CCN(c1cc(/C=C/c2cccc(CN(C)C)c2)cc(C(=O)NCc2c3c(c(C)[nH]c2=O)CCCC3)c1C)C1CCOCC1
7.8 nM | CCN(c1cc(/C=C/c2ccc(CN3C[C@@H](C)O[C@@H](C)C3)c(F)c2)cc(C(=O)NCc2c3c(c(C)[nH]c2=O)CCCC3)c1C)C1CCOCC1
> 1000 nM | CCN(c1cc(/C=C/c2ccc(/C=C/C(=O)OC)cc2)cc(C(=O)NCc2c(C)c3c([nH]c2=O)CCCC3)c1C)C1CCOCC1
35 nM | CCN(c1cc(/C=C/c2cccc(CN(C)C)c2)cc(C(=O)NCc2c(C)c3c([nH]c2=O)CCCC3)c1C)C1CCOCC1

Molecular target: T1, Histone-lysine N-methyltransferase EZH2
Assay: Inhibition of wild type EZH2 (unknown origin) in presence of 1 uM SAM by AlphaLISA assay

IC50 | SMILES
22 nM | CCN(c1cc(/C=C/c2cccc(CN(C)C)c2)cc(C(=O)NCc2c3c(c(C)[nH]c2=O)CCCC3)c1C)C1CCOCC1
